Experimental data: patent publication US20250388542A1, “ANALOGUES OF PENTAMIDINE AND USES THEREFOR” (Auransa Inc., priority 2018, published 2025)

Tested on: A549-NLR cells with anti-CD3 stimulated PBMC
Experiment: Primary human T cell killing assay
Type: cell-based
Conditions: IL-2 10 ng/mL, positive control
Procedure: In this study, A549-NLR cells were cultured alone or with PBMC's isolated from blood of three healthy donors in the presence of anti-CD3 stimulation. Cells were treated with test compound at three concentrations (0.3 μM, 1 μM and 3 μM) and IL-2 (10 ng/mL). Controls included A549-NLR cells cultured alone with each compound titration, IL-2 and vehicle. A549 growth was quantified by enumerating NucLight+ cells and A549 apoptosis by Caspase-3/7+ expression (colocalised to NucLight signal) every 2 hours for 96 hours.
All test conditions were applied to A549-NLR cells in the presence of stimulated PBMC. The number of A549 cells was tracked by IncuCyte live cell imaging over 96 hrs. The number of A549 cells at each time-point was counted and expressed as a percentage of the starting number (on a per well basis). At each time-point, the frequency of target cell apoptosis was quantified. Mean of technical triplicates are shown, except for donor 1 at 3 μM, which was analysed as duplicates due to out of focus IncuCyte images.

IL-2: positive control (IL-2, 10 ng/mL) in the T cell killing assay
immune-mediated tumor cell killing: robust enhancement of immune-mediated tumor cell killing
